{
  "source": "patent US20120040914A1",
  "about": "“ENHANCING EFFECTIVENESS OF GLIAL CANCER THERAPIES” (priority 2010, published 2012)",
  "test_system": "A172 human glioblastoma cell line",
  "settings": "1 uM or 5 uM TB added to 5 mM TMZ, A172 cells",
  "data": [
    {"substance": "TBSA: BSA-conjugated testosterone, membrane impermeable androgen, ligand/activator of the membrane androgen receptor (mAR)", "values": [
      {"measurement": "effect on TMZ cytotoxicity", "result": "dramatically enhanced the degree of cytotoxicity"}
    ]}
  ]
}
